# Laboratory results reported in patent publication US20210017295A1, “BISPECIFIC BINDING AGENTS AND USES THEREOF” (MEMORIAL SLOAN KETTERING CANCER CENTER, priority 2018, published 2021).
# Tested on: s.c. HER2(+) BT-474 tumors
# Type: in vivo
# Settings: BT-474 216 mm^3; PRIT, 55.5 MBq (~300 pmol); 24 h p.i.; single mouse
smiles,measurement,value
Nc1ccc(CC2CN(CC(=O)[O-])CCN(CC(=O)[O-])CCN(CC(=O)[O-])CCN2CC(=O)[O-])cc1.[177Lu+3] (stereo not shown) [^177Lu-DOTA-Bn],"activity concentration in tumor, imaged mouse",6.06 % IA/g
